Measurements as given in patent US20140296248A1, “METHODS AND COMPOSITIONS FOR PREDICTING RESISTANCE TO ANTICANCER TREATMENT” (Stichting het Nederlands Kanker Instiuut-Antoni van …, priority 2011, published 2014).

How the values were obtained:
[1] = tested on: H3255 cells (EGFR L858R NSCLC); experiment: Long-term colony formation / cell proliferation assay in H3255 cells; assay type: cell-based, human
Experimental: (§1) Single cell suspensions of the lung cancer cell lines were seeded into 6-well plates (2×10^4 cells/well) and cultured both in the absence and presence of the ALK inhibitors. At the endpoints of colony formation assays, cells were fixed with formaldehyde, stained with crystal violet (0.1% w/v) and photographed. All relevant assays were performed independently at least three times. All knockdown and overexpression experiments were done by retroviral or lentiviral infections.
(§2) Cells were seeded into 6-well plates (2-5×10^4 cells/well) and cultured both in the absence and presence of drugs as indicated. […] All knockdown and overexpression experiments were done by retroviral or lentiviral infection. All relevant assays were performed independently at least three times.

[2] = tested on: H3255 cells (EGFR L858R NSCLC); details: parental cells, low nanomolar concentrations; cited from earlier work
[3] = tested on: PC9 cells (EGFR delE746-A750 NSCLC); experiment: Long-term colony formation / cell proliferation assay in PC9 cells; assay type: cell-based, human
Experimental: as §1, §2

[4] = tested on: PC9 cells (EGFR delE746-A750 NSCLC); details: parental cells, low nanomolar concentrations; cited from earlier work

## COc1cc2ncnc(Nc3ccc(F)c(Cl)c3)c2cc1OCCCN1CCOCC1 [gefitinib]
[1]; pRS and shGFP control cells
  drug response of control H3255 cells: effectively eradicated
[1]; shMED12
  drug response of MED12 knockdown H3255 cells: insensitive
[2]
  sensitivity of H3255 cells: exquisitely sensitive
[3]; shARID1A #1 and #2
  drug response of ARID1A knockdown PC9 cells: conferred resistance
[3]; shDAB2IP#1 and #3, 50 nM
  drug response of DAB2IP knockdown PC9 cells: conferred resistance
[3]; shMED12
  drug response of MED12 knockdown PC9 cells: insensitive
[3]; shMED12 plus pMX-Med12, 50 nM gefitinib
  drug response of MED12 knockdown PC9 cells reconstituted with mouse Med12 cDNA: restored their sensitivity
[3]; shNF1#2 and #5, 50 nM
  drug response of NF1 knockdown PC9 cells: conferred resistance
[3]; shSMARCE1#1 and #2
  drug response of SMARCE1 knockdown PC9 cells: conferred resistance
[3]; shSMARCE1 plus SMARCE1-ND
  drug response of SMARCE1 knockdown PC9 cells reconstituted with SMARCE1-ND: restored the sensitivity
[4]
  sensitivity of PC9 cells: exquisitely sensitive
